## Antibody variant affinities, Ab-95 light chain, assay 2

From the AlphaSeq antibody data of Engelhart et al. 2022 (doi:10.1038/s41597-022-01779-4), copy in the FLAb collection.

All variants were tested on one target, the spike HR2 peptide PDVDLGDISGINAS (SARS-CoV-2).

Parent: Ab-95, a human scFv built as VH, the linker GGGGSGGGGSGGGGS, VL. Only the CDRs of the light chain vary.
VH: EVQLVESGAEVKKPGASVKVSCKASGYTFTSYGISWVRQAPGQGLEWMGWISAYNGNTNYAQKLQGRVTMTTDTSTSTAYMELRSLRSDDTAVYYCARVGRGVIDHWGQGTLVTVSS
VL: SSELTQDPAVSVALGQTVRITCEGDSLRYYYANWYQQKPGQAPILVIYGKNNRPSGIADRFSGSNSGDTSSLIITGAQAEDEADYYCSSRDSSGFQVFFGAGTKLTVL

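AAYL52 was designed without a model: most single CDR substitutions and a random sample of double and triple ones. Affinity was read by AlphaSeq, a pooled yeast mating assay with surface-displayed partners. Binding brings cells together so that they mate, and sequencing counts the barcode pairs among the diploids. A regression on co-assayed BCL2-family reference pairs converts the normalised counts of each replicate to an apparent Kd. Each pool was mated in three replicate cultures.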

Variants are written as CDR1, CDR2 and CDR3 of the light chain (limits as in the source). Parent: EGDSLRYYYAN, GKNNRPS, SSRDSSGFQVF.
Affinities are written as log10 Kd with Kd in nM; a lower number is a better binder.
The mean shown is taken over the replicates in which the pair was detected.
"ND" means that the variant was in the library but no mating with the target was seen in that replicate; the authors take this as a sign of poor binding, and no number exists.
Three control strains display no target. For library AAYL52, 28% of the pairings with them gave a signal, with a median of 3.91 and one signal in twenty below 2.90, so weak values seen in few replicates may be background. For each scFv, signals with the empty controls are counted beside the result, with their mean in brackets.
In this assay the parent's reference entry averaged 2.31; its copy inside this library read 2.25.

| CDR-L1 | CDR-L2 | CDR-L3 | replicates, log10 nM | mean log10 Kd (nM) | signal with controls |
|---|---|---|---|---|---|
| MGDSLRYYYAN | GKNNRNS | SSRDGSGFQVF | 2.56 / 2.62 / 2.19 | 2.46 | 3 of 9 (3.09) |
| EGDSLRYYYAN | CKNNRPS | DSRDSSGFQDF | ND / ND / ND | ND | 1 of 9 (3.24) |
| EGDSLRYFYAN | GYNMRPS | SSRDSSGFQVF | 3.97 / 4.11 / ND | 4.04 | 3 of 9 (4.41) |
| EGDSLRYYYAN | EKRNLPS | SSRDSSGFQVF | ND / ND / ND | ND | 0 of 9 |
| EGDILRDRYAN | GKNNRPS | SSRDSSGFQVF | 1.29 / 1.12 / 0.74 | 1.05 | 3 of 9 (4.51) |
| EGDSLWYYYAN | WKNNRPS | SSRDSSGFQGF | 3.78 / 4.58 / ND | 4.18 | 3 of 9 (4.21) |
| EGDSLRYYYAN | VKNNRPS | SHGDSSGFQVF | ND / 3.78 / ND | 3.78 | 1 of 9 (3.94) |
| EGDSLRYPYAN | PKNNRPS | SSRDSSGHQVF | ND / ND / ND | ND | 0 of 9 |
| EGDSLRYYYAN | GKNWRPS | SSRDSSTFQVF | ND / ND / ND | ND | 0 of 9 |
| EGDSLRYYYAN | GKNNRPS | SARISSGFQVF | ND / 4.87 / ND | 4.87 | 4 of 9 (3.51) |
| EGDSLGYYYAN | GKNNLPS | GSRDSSGFQVF | 5.13 / ND / ND | 5.13 | 1 of 9 (3.27) |
| EGDSLRYYYAN | GKNNDPS | SSRDSSGFMVP | 3.98 / 4.09 / 4.18 | 4.08 | 2 of 9 (3.87) |
| EGDSLRLYYAN | GKNNRPS | SSRDSSGHSVF | 3.76 / 3.53 / 2.70 | 3.33 | 1 of 9 (3.48) |
| EEDSLRYYYAN | GKNNRPP | SSRDSSGFQVF | 3.63 / 4.70 / ND | 4.16 | 4 of 9 (4.30) |
| VGDHLRYYYAN | GKNNRPS | SSRDSSYFQVF | 3.11 / 4.53 / 3.41 | 3.68 | 5 of 9 (3.79) |
| EGDSLRYKYAN | GKNNWPS | SSRHSSGFQVF | ND / 3.29 / 3.56 | 3.42 | 2 of 9 (3.75) |
| EGDSLRYYYAN | GKNNRPS | SERDSMVFQVF | 3.40 / ND / ND | 3.40 | 1 of 9 (3.84) |
| EGDSLRYYRAN | GKNNRPS | SMRDSAGFQVF | 5.26 / ND / 3.13 | 4.20 | 3 of 9 (4.53) |
| CGDDLRYYYAN | CKNNRPS | SSRDSSGFQVF | ND / 3.03 / ND | 3.03 | 2 of 9 (3.47) |
| EGDSLFYYYAN | CKNNKPS | SSRDSSGFQVF | 3.79 / ND / ND | 3.79 | 4 of 9 (3.46) |
| EGDSLNYYYAN | GKNNRPK | SSRRSSGFQVF | 2.80 / 3.58 / ND | 3.19 | 1 of 9 (4.00) |
| EGDSLRYYYAN | GKKNRPS | KSRDSSIFQVF | ND / ND / ND | ND | 1 of 9 (4.24) |
| EGDSLRYPYAN | GKNNRPS | SSRDSSGFQAF | 2.00 / 2.47 / 1.86 | 2.11 | 1 of 9 (4.67) |
| EGDSVRYYYAN | GKNNRPQ | SSRDSSNFQVF | 3.83 / 3.21 / 3.79 | 3.61 | 2 of 9 (3.80) |
| ELDSHRYYYAN | GKNNRPS | SSRDSSGFQVF | 3.53 / 2.89 / 1.91 | 2.77 | 6 of 9 (3.88) |
| EDDSFRYYYIN | GKNNRPS | SSRDSSGFQVF | 3.24 / 2.81 / 2.76 | 2.94 | 0 of 9 |
| WGDSLRYYYCN | GKINRPS | SSRDSSGFQVF | 3.71 / ND / ND | 3.71 | 3 of 9 (3.94) |
| EGDKLRHYYAN | GKNNRPS | SSRDMSGFQVF | 4.53 / 4.55 / ND | 4.54 | 3 of 9 (3.29) |
| EGDSLRYYYAN | GANNRPS | SSRWSWGFQVF | 2.43 / 2.80 / 2.28 | 2.50 | 1 of 9 (3.47) |
| EGDSERTYYAS | GKNNRPS | SSRDSSGFQVF | ND / 3.68 / ND | 3.68 | 3 of 9 (3.65) |
| EGDSLRYYYAM | GKRNRPS | SSRDSSGFNVF | 3.64 / 3.13 / ND | 3.39 | 2 of 9 (3.91) |
| DGDSLIYYYAN | GKNNRPS | SSRDSSGFCVF | 3.62 / 5.99 / 3.96 | 4.52 | 4 of 9 (4.14) |
| EGASLRYYYAN | GKNNHPS | SSRDSSGFQVF | 2.56 / 2.30 / 1.91 | 2.26 | 1 of 9 (4.91) |
| EGDSLRYYYAN | GKNNEPT | SSRDSSGFQVF | 2.81 / 3.44 / 3.05 | 3.10 | 4 of 9 (4.48) |
| EGDSLRYYYAN | GIRNRPS | SHRDSSGFQVF | ND / 4.24 / 3.86 | 4.05 | 3 of 9 (3.45) |
| EMDSLRYYFAN | GKNNRPS | SSRKSSGFQVF | 3.89 / 4.57 / 3.92 | 4.13 | 3 of 9 (4.98) |
| EGDSLRYRYAN | GKNDKPS | SSRDSSGFQVF | 1.01 / 1.04 / 0.59 | 0.88 | 5 of 9 (4.78) |
| EGDSLRDYYAN | GKNNLPS | SSRDSSGFQPF | 4.08 / 4.21 / 3.25 | 3.84 | 4 of 9 (4.13) |
| EGDSLRAYVAN | GKNNRPS | SSRDSSGFTVF | 3.56 / 3.58 / 3.41 | 3.52 | 3 of 9 (3.62) |

The first 4 variants above that were never detected:

| CDR-L1 | CDR-L2 | CDR-L3 | replicates, log10 nM | mean log10 Kd (nM) | signal with controls |
|---|---|---|---|---|---|
| EGDSLRYYYAN | CKNNRPS | DSRDSSGFQDF | ND / ND / ND | ND | 1 of 9 (3.24) |
| EGDSLRYYYAN | EKRNLPS | SSRDSSGFQVF | ND / ND / ND | ND | 0 of 9 |
| EGDSLRYPYAN | PKNNRPS | SSRDSSGHQVF | ND / ND / ND | ND | 0 of 9 |
| EGDSLRYYYAN | GKNWRPS | SSRDSSTFQVF | ND / ND / ND | ND | 0 of 9 |